Measurements as given in patent US7166694B2, “Vaccine against cancerous diseases which is based on mimotopes of antigens expressed on tumor cells” (priority 2000, dated 2007).

System: membranes of the Her-2/neu negative cell line HTB132
Assay: ELISA of antibody binding to membranes of the Her-2/neu negative cell line HTB132
Method: The wells of a 96-well ELISA plate (Nunc) were coated with membrane fractions of the Her-2/neu overexpressing cell line SKBR3 and as a control for non-specific antibody bonds with membrane fractions of the Her-2/neu negative cell line HTB 132 in PBS overnight.
The next day, non-specific binding sites were blocked by 3 percent BSA in PBS. Herceptin as well as herceptin after preincubation with relevant and irrelevant phage mimotopes or by mimotopes on KLH as well as on KLH alone were applied to the coated, blocked ELISA plate in a repeated test. […] HRP enters into a color reaction with the substrate. The result of this color reaction can be quantified by photometer. The absorption coefficient of 450/630 nm (OD) is determined.

Herceptin: humanized monoclonal antibody obtained from mice, effective against the antigen HER-2/neu, from Genentech Inc.
reaction on membranes of the Her-2/neu negative cell line HTB132: no reaction
